Results: PubChem BioAssay (NCI)
Where “and” joins values, the source holds several entries; their conditions need not be identical. Identical values can stand only once. Some results for these compounds are left out of this collection, so the calls shown say nothing about other tests.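 Cultured in 96-well plates, cells were exposed to test compound for 48 hours across five concentrations. GI50 is the concentration that inhibits growth by half. At the TGI there is no net growth.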

Key:
Assay in all cases: inhibition of tumour cell growth, NCI panel, 48 h
[1] = system: SK-MEL-5 melanoma
[2] = system: KM12 colon
[3] = system: NCI-H23 lung
[4] = system: UO-31 renal
[5] = system: SF-539 CNS
[6] = system: IGROV1 ovarian
[7] = system: UACC-257 melanoma
[8] = system: NCI-H522 lung
[9] = system: BT-549 breast
[10] = system: 786-0 renal
[11] = system: SF-268 CNS
[12] = system: MDA-MB-435
[13] = system: MDA-N
[14] = system: CCRF-CEM leukemia
[15] = system: OVCAR-8 ovarian
[16] = system: HS 578T breast
[17] = system: OVCAR-4 ovarian
[18] = system: T-47D breast
[19] = system: UACC-62 melanoma
[20] = system: K-562 leukemia
[21] = system: ACHN renal
[22] = system: HOP-92 NSCLC
[23] = system: MALME-3M melanoma
[24] = system: SN12C renal
[25] = system: MDA-MB-231 breast
[26] = system: HCC-2998 colon
[27] = system: CAKI-1 renal
[28] = system: MOLT-4 leukemia
[29] = system: U251 CNS
[30] = system: SW-620 colon
[31] = system: NCI/ADR-RES ovarian
[32] = system: SK-OV-3 ovarian
[33] = system: PC-3 prostate
[34] = system: SNB-19 CNS
[35] = system: SK-MEL-2 melanoma
[36] = system: HCT-116 colon
[37] = system: SNB-75 CNS
[38] = system: M14 melanoma
[39] = system: HL-60(TB) leukemia
[40] = system: LOX IMVI melanoma
[41] = system: SR leukemia
[42] = system: NCI-H460 lung
[43] = system: A498 renal
[44] = system: SF-295 CNS
[45] = system: RPMI-8226 leukemia
[46] = system: OVCAR-3 ovarian
[47] = system: A549 NSCLC
[48] = system: RXF 393 renal
[49] = system: OVCAR-5 ovarian
[50] = system: HOP-62 NSCLC
[51] = system: HT29 colon
[52] = system: MCF7 breast
[53] = system: HCT-15 colon
[54] = system: NCI-H226 lung
[55] = system: DU-145 prostate
[56] = system: TK-10 renal
[57] = system: EKVX NSCLC
[58] = system: SK-MEL-28 melanoma
[59] = system: COLO 205 colon

With O=C(OC1CN2CCC1CC2)C(c1ccccc1)C1(O)CCCC1 (stereo not drawn) the GI50 [1] was > 100 µM and 96.5 µM, the TGI [1] was greater than 100 µM and the GI50 [2] was greater than 100 µM. The TGI [2] was greater than 100 µM, the GI50 [3] was greater than 100 µM and the TGI [3] was greater than 100 µM. For the same compound, the GI50 [4] was > 100 µM and 57.8 µM, the TGI [4] was greater than 100 µM and the GI50 [5] was greater than 100 µM. For the same compound, the TGI [5] was greater than 100 µM, the GI50 [6] was greater than 100 µM and the TGI [6] was greater than 100 µM. For the same compound, the GI50 [7] was greater than 100 µM, the TGI [7] was greater than 100 µM and the GI50 [8] was greater than 100 µM. It also gave a TGI [8] greater than 100 µM, a GI50 [9] greater than 100 µM and a TGI [9] greater than 100 µM. For the same compound, the GI50 [10] was greater than 100 µM, the TGI [10] was greater than 100 µM and the GI50 [11] was greater than 100 µM. For the same compound, the TGI [11] was greater than 100 µM, the GI50 [12] was greater than 100 µM and the TGI [12] was greater than 100 µM. It also gave a GI50 [13] greater than 100 µM, a TGI [13] greater than 100 µM and a GI50 [14] greater than 100 µM. It also gave a TGI [14] greater than 100 µM, a GI50 [15] greater than 100 µM and a TGI [15] greater than 100 µM. For the same compound, the GI50 [16] was 90.1 µM and 20.1 µM, the TGI [16] was greater than 100 µM and the GI50 [17] was greater than 100 µM. For the same compound, the TGI [17] was greater than 100 µM, the GI50 [18] was greater than 100 µM and the TGI [18] was greater than 100 µM. It also gave a GI50 [19] greater than 100 µM, a TGI [19] greater than 100 µM and a GI50 [20] greater than 100 µM. The TGI [20] was greater than 100 µM, the GI50 [21] was greater than 100 µM and the TGI [21] was greater than 100 µM. For the same compound, the GI50 [22] was greater than 100 µM, the TGI [22] was greater than 100 µM and the GI50 [23] was greater than 100 µM. It also gave a TGI [23] greater than 100 µM, a GI50 [24] greater than 100 µM and a TGI [24] greater than 100 µM. It also gave a GI50 [25] greater than 100 µM, a TGI [25] greater than 100 µM and a GI50 [26] greater than 100 µM. It also gave a TGI [26] greater than 100 µM, a GI50 [27] greater than 100 µM and a TGI [27] greater than 100 µM. The GI50 [28] was greater than 100 µM, the TGI [28] was greater than 100 µM and the GI50 [29] was greater than 100 µM. It also gave a TGI [29] greater than 100 µM, a GI50 [30] greater than 100 µM and a TGI [30] greater than 100 µM. The GI50 [31] was greater than 100 µM, the TGI [31] was greater than 100 µM and the GI50 [32] was greater than 100 µM. For the same compound, the TGI [32] was greater than 100 µM, the GI50 [33] was greater than 100 µM and the TGI [33] was greater than 100 µM. For the same compound, the GI50 [34] was greater than 100 µM, the TGI [34] was greater than 100 µM and the GI50 [35] was greater than 100 µM. For the same compound, the TGI [35] was greater than 100 µM, the GI50 [36] was greater than 100 µM and the TGI [36] was greater than 100 µM. For the same compound, the GI50 [37] was > 100 µM and 43.7 µM, the TGI [37] was greater than 100 µM and the GI50 [38] was greater than 100 µM. It also gave a TGI [38] greater than 100 µM, a GI50 [39] greater than 100 µM and a TGI [39] greater than 100 µM. It also gave a GI50 [40] greater than 100 µM, a TGI [40] greater than 100 µM and a GI50 [41] greater than 100 µM. The TGI [41] was greater than 100 µM, the GI50 [42] was greater than 100 µM and the TGI [42] was greater than 100 µM. For the same compound, the GI50 [43] was 29.1 µM, the TGI [43] was greater than 100 µM and the GI50 [44] was > 100 µM and 43.5 µM. It also gave a TGI [44] greater than 100 µM, a GI50 [45] greater than 100 µM and a TGI [45] greater than 100 µM. It also gave a GI50 [46] greater than 100 µM, a TGI [46] greater than 100 µM and a GI50 [47] greater than 100 µM. For the same compound, the TGI [47] was greater than 100 µM, the GI50 [48] was > 100 µM and 33.9 µM and the TGI [48] was greater than 100 µM. The GI50 [49] was greater than 100 µM, the TGI [49] was greater than 100 µM and the GI50 [50] was greater than 100 µM. The TGI [50] was greater than 100 µM, the GI50 [51] was greater than 100 µM and the TGI [51] was greater than 100 µM. For the same compound, the GI50 [52] was greater than 100 µM, the TGI [52] was greater than 100 µM and the GI50 [53] was greater than 100 µM. For the same compound, the TGI [53] was greater than 100 µM, the GI50 [54] was > 100 µM and 87.8 µM and the TGI [54] was greater than 100 µM. The GI50 [55] was greater than 100 µM, the TGI [55] was greater than 100 µM and the GI50 [56] was greater than 100 µM. It also gave a TGI [56] greater than 100 µM, a GI50 [57] greater than 100 µM and a TGI [57] greater than 100 µM. For the same compound, the GI50 [58] was greater than 100 µM, the TGI [58] was greater than 100 µM and the GI50 [59] was greater than 100 µM. It also gave a TGI [59] greater than 100 µM.
